Assay results: US20260382588A1, “COMPOUNDS CONTAINING A HYDROXYPHENYL MOIETY AND THEIR USE” (published 2026)
pIC50: −log10 of the molar value. Like-named read-outs stand apart in the source and are kept apart here.

Amino acid sequences for entries named in this document (tags omitted). Residues count along the entry.
UniProt O75460, 465-977 limits assumed: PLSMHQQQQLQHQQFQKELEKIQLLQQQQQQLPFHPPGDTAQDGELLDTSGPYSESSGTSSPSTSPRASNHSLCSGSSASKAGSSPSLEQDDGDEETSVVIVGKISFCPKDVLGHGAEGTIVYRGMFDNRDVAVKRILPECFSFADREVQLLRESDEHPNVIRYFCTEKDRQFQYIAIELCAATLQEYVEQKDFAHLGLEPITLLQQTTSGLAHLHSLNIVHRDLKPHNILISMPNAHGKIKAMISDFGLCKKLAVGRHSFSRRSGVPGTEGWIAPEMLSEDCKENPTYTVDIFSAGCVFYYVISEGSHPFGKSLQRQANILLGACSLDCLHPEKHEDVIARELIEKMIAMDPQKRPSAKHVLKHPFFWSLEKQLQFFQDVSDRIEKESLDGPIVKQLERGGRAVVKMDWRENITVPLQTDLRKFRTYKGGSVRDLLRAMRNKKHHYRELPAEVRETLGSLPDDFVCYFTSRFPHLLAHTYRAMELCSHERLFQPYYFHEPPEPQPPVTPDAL

Columns and labels:
[1] = target: IRE1 (Homo sapiens, UniProt O75460); test: IRE1-mediated in vitro RNase assay (FRET-quenched mini Xbp1 RNA probe); details: for IC50: FRET-quenched IRE1 RNA substrate probe, FIG. 1, result in words
From the text: Materials—IRE1 wild-type recombinant protein encoding the cytoplasmic domain (amino acids 465-977) with N-terminal polyhistidine-tag and GST tag was from Sinobiological (Sino Biological Europe GmbH, Eschborn, Germany, #11905-H20B). The fluorescent probe used for the in vitro IRE1 RNase assay was from Eurogentec. Tunicamycin was purchased from Calbiochem (Merck KGaA, Darmstadt, Germany). All the inhibitors were synthesized by and purchased from Enamine (Riga, Latvia).
IRE1-mediated in vitro RNase assay—Organic molecules (Compounds 28 (Z4P), and 33 (Z4), 34 (Z4A), 35 (Z4B), 36 (Z4C), 37 (Z4D) and 38 (Z4E)) were diluted in minimal volume of DMSO and subsequently re-diluted in reaction buffer (20 mM HEPES pH 7.5; 1 mM MgOAc; 50 mM KOAc). Maximum volume of DMSO per reaction never exceeded 1%. Reaction volume was 25 μL. Recombinant IRE1 (0.6 μg/reaction) was incubated at room temperature for 10 minutes with varying concentrations (0-100 μM) of inhibitor and reaction buffer. The assay relied on the use of fluorescence resonance energy transfer (FRET)—quenched mini Xbp1 RNA substrate probe, which when cleaved by IRE1 emits fluorescence at 590 nm (cy3) wavelength (F. Prischi et al., Nature Communications, 2014, 5, 3554). Subsequently equal volume of mixture of reaction buffer, 20 mM ATP, 2 mM DTT and 1 μg of fluorescent probe were added to each sample and fluorescence was read in 96 well plates flat bottom, black polystyrene, matrix active group High Bind (Corning®) every minute for 25 minutes, at 37 °C, using a Tecan 200 plate reader.

[2] = system: U87 cells; test: TMZ sensitivity (cell viability, WST1) assay in U87 cells; details: for TMZ toxicity in U87 cells: increasing concentrations of compound upon TMZ treatment (FIG. 3); for sensitization of cells to TMZ: sub-toxic dose of compound plus escalating TMZ, 6 days (FIGS. 2D and 3)
Protocol: Cell culture and treatments—U87MG (U87; ATCC) cells were authenticated as recommended by AACR (http://aacrjoumals.org/content/cell-line-authentication-information) and regularly tested for the absence of mycoplasma using MycoAlert® (Lonza, Basel, Switzerland) or MycoFluor (Invitrogen, Carlsbad, CA, USA). U87 were grown in DMEM Glutamax (Invitrogen, Carlsbad, CA, USA) supplemented with 10% FBS. GB immortalized U251 and primary RADH87 (T. Avril et al., Brain Pathol., 2012, 22, 159-174) cells were grown in DMEM supplemented with 10% FBS in a 5% C02 humidified atmosphere at 37 °C. GB cell lines were modified for IRE1 activity by overexpressing dominant negative (DN) forms of IRE1 that lack the RNase domain (IRE1.NCK or IRE1 Q780stop) as previously described (S. Lhomond et al., EMBO Molecular Medicine, 2018, 10, e7929; J. Obacz et al., bioRxiv, 2020, 533018). For XBP1s induction experiments, tunicamycin was used at 1 μg/mL for the indicated periods of time. For inhibitor cell toxicity assays cells were plated in 96 well plates at 5000 cells per well and treated with 0, 5, 10, 25, 50, 100, 250, 500, 1000 and 2500 μM concentrations of each inhibitor. After 6 days of incubation, WST1 reagent (Roche) was added to each well and post 2-hour incubation the plate was read using a Tecan 200 colorimeter. For TMZ sensitivity assays cells were plated in a 96 well plate at 5000 cells per well and co-treated with 0, 5, 10, 25, 50, 100, 250, 500, 1000 and 2500 μM of TMZ plus a non-toxic dose of inhibitor. After 6 days of incubation, WST1 reagent (Roche) was added to each well and post 2-hour incubation the plate was read using a Tecan 200 colorimeter.
The effect of compounds 28 (Z4P) and 33 (Z4) on RIDD was then tested by interrogating the levels of the known RIDD target Sparc mRNA (46) in U87 cells upon treatment with the transcriptional blocker actinomycin D and the ER stressor tunicamycin. Both compound 33 (Z4) and 28 (Z4P) blocked tunicamycin-induced degradation of Sparc mRNA compared to control treatment (FIG. 2C) whilst had no effect on Sparc mRNA in cells overexpressing a dominant negative (DN) form of IRE1 (data not shown). The specificity of these compounds in the context of the other arms of the UPR, PERK in particular, was then investigated. This was done to ensure that the stress responses related to compounds 28 (Z4P) and 33 (Z4) were wholly due to their action on IRE1 rather than other UPR transducers. The expression of downstream effectors of PERK and ATF6 was evaluated. […] This was also confirmed at the level of eIF2α phosphorylation and ATF4 protein expression which were not altered upon exposure to compound 33 (Z4) (data not shown). […] Consequently, to further document the characteristics of compound 33 (Z4) at the protein level, U251 (commonly available GB cell line) and RADH87 (G. Auf et al., Proc Natl Acad Sci USA, 2010, 107, 15553-15558) (human tumor-derived primary GB cell line) cells were treated and their proteome were evaluated. Treatment of U251 and RADH87 cells with compound 33 (Z4) impacted on particular pathways such as cell adhesion, circulatory system development, cell locomotion and cell migration; all properties involved in tumor establishment (e.g. angiogenesis) and tumor invasion (e.g. metastasis) (data not shown). The proteomes of these GB lines exposed to compound 33 (Z4) was then functionally compared to those of the same cell lines in which IRE1 activity was invalidated genetically either using a dominant negative construct reported previously (B. Drogat, et al., Cancer Res., 2007, 67, 6700-6707) or a truncated mutant variant of IRE1 lacking an RNase domain (Q780stop) (S. Lhomond, et al., EMBO Molecular Medicine, 2018, 10, e7929) (data not shown). […] Proteome alterations upon compound 33 (Z4) exposure phenocopied those observed in cells in which IRE1 activity was genetically blunted, thus reinforcing the selectivity of compound 33 (Z4) towards IRE1 (data not shown). […]

Compound | IC50 [1] | TMZ toxicity in U87 cells [2] | pIC50 ([1]; read-out: IC50 (RNase), Table 5) | sensitization of cells to TMZ [2]
CC(CCc1ccc(O)cc1)NC(=O)C(=O)Nc1cc(C(N)=O)ccc1F (stereo not shown) | low micromolar range | enhancement of TMZ toxicity | – | –
Cc1ccc(C)c(NC(=O)NC(C)CCc2ccc(O)cc2)c1 (racemic) | low micromolar range | enhancement of TMZ toxicity | 5.96 | about 1.5 fold
CCNC(=O)c1ccc(C)c(NC(=O)NC(C)CCc2ccc(O)cc2)c1 (stereo not shown) | low micromolar range | enhancement of TMZ toxicity | – | –
Cc1ccc(C(=O)NC2CC2)cc1NC(=O)NC(C)CCc1ccc(O)cc1 (stereo not shown) | low micromolar range | enhancement of TMZ toxicity | – | –

The next lines start with results.

IC50 [1] | Compound | TMZ toxicity in U87 cells [2] | pIC50 ([1]; read-out: IC50 (RNase), Table 5) | sensitization of cells to TMZ [2]
low micromolar range | Cc1ccc(C(N)=O)cc1NC(=O)NC(C)CCc1ccc(O)cc1 (racemic) | – | – | about 1.5 fold
low micromolar range | CNC(=O)c1ccc(C)c(NC(=O)NC(C)CCc2ccc(O)cc2)c1 (stereo not shown) | enhancement of TMZ toxicity | – | –
low micromolar range | CC(CCc1ccc(O)cc1)NC(=O)Nc1cc(C(N)=O)ccc1F (stereo not shown) | enhancement of TMZ toxicity | – | –
